In patent US4602025A, “Aromatase inhibitors” (Eli Lilly and Company, priority 1984, dated 1986) one finds EC50 data, which are given here for one compound.

pEC50: −log10 of the molar value.

What is called pEC50 is −log10 of the EC50, conventionally taken in molar units. A low value points to a large EC50.

For the assay, the target named is T1, aromatase (Rattus norvegicus, UniProt P22443).
T1 sequence (P22443 1-508): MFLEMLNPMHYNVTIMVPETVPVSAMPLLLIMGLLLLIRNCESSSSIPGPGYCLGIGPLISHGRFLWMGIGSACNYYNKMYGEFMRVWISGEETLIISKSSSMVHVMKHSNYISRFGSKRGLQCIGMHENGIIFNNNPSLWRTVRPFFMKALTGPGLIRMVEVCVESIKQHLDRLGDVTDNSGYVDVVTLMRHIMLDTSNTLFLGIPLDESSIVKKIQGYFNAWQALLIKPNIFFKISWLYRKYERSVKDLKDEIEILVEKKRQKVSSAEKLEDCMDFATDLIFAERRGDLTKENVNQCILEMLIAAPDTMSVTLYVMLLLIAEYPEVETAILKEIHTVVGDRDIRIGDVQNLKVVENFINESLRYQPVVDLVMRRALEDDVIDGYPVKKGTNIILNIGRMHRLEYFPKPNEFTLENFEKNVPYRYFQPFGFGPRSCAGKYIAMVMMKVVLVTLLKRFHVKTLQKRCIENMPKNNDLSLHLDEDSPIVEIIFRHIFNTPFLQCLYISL
Nature of the assay: biochemical.

Regarding `c1ccc(C(c2ccccc2)(c2ccns2)n2ccnc2)cc1` [Example 1, 5-(1H-Imidazol-1-yldiphenylmethyl)isothiazole], the pEC50 is over 7.30.
